The test concerns the target TRKA (Homo sapiens (Human), UniProt P04629). Kind of test: Isolated TRK enzyme assay (HTRF KinEASE-TK), TRKA. It counts as biochemical.

By UniProt entry, the sequences of proteins in these tests, tags left out. Residues count along the entry.
UniProt P04629, 441-796: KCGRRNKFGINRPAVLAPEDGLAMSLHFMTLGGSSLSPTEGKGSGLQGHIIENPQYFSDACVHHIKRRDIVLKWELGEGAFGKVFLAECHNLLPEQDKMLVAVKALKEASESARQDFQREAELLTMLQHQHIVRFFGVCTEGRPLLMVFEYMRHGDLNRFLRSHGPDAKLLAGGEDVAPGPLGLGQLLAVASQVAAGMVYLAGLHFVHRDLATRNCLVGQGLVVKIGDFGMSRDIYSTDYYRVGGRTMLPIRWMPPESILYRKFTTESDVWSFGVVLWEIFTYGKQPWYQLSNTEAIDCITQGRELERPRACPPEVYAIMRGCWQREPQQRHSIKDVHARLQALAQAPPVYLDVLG

“4-benzoyl-N-alpha-(tert-butoxycarbonyl)-N-{5-[(7-isopropyl-7H-pyrrolo[2,3-d]pyrimidin-5-yl)carbonyl]pyridin-3-yl}-L-phenylalaninamide [Example 286]” came in with an IC50 of 19.5 nM.

For orientation: IC50 means the point on the concentration scale where inhibition reaches its midpoint. A lower IC50 goes with greater potency.

For the origin of these results see patent publication US8846698B2, “Pyrrolo[2,3-d]pyrimidine tropomysin-related kinase inhibitors” (Pfizer Limited, priority 2011, dated 2014).
